# Values of other authors in article PMC8224985 (European journal of medicinal chemistry, 2020).
# pKi: −log10 of the molar value.
# Molecular target: SphK2
# Conditions: read-out: SphK2 Ki; cited from earlier work
smiles,measurement,value
CCCCCCCCc1ccc(-c2noc([C@@H]3CCCN3C(=N)N)n2)cc1 [SLR080811],pKi,5.89
